Tests used:
[1] = target: T1, P2X7 (Homo sapiens (Human), UniProt Q99572); experiment: P2X7 antagonism in human whole blood, IL-1β release (LPS + Bz-ATP, ELISA); type: cell-based; conditions: Human Whole Blood IC50 (μM), LPS 30 ng/ml + Bz-ATP 1 mM
[2] = target: T1, P2X7; experiment: Radioligand binding ([3H]A-804598) to membranes of human P2X7-1321N1 cells; conditions: human P2X7-1321N1 membranes, tracer tritiated A-804598, 1 hour at 4° C.
Experimental: (§1) human or rat P2X7-1321N1 cells were collected and frozen @ −80° C. On the day of the experiment, cell membrane preparations were made according to standard published methods. The total assay volume was 100 μl: 10 μl compound (10×)+(b) 40 μl tracer (2.5×)+50 μl membrane (2×). The tracer used for the assay was tritiated A-804598. The compound can be prepared as described in the literature. (Donnelly-Roberts, D. Neuropharmacology 2008, 56 (1), 223-229.) Compounds, tracer and membranes were incubated for 1 hour @ 4° C. The assay was terminated by filtration (GF/B filters pre-soaked with 0.3% PEI) and washed with washing buffer (Tris-HCl 50 mM). The IC50 generated in the binding assay was corrected for tracer concentration and affinity of the tracer to derive at the affinity (Ki) of the test compounds. The data are presented in Table 2 under the headings: P2X7 human Ki (μM) and P2X7 rat Ki (μM). Data are analyzed and graphed on Graphpad Prism 5.

The chains behind the UniProt entries cited, without tags or fusion partners. Where a name states a change or a piece, a line headed by the entry shows the natural chain unless it says otherwise.
UniProt Q99572: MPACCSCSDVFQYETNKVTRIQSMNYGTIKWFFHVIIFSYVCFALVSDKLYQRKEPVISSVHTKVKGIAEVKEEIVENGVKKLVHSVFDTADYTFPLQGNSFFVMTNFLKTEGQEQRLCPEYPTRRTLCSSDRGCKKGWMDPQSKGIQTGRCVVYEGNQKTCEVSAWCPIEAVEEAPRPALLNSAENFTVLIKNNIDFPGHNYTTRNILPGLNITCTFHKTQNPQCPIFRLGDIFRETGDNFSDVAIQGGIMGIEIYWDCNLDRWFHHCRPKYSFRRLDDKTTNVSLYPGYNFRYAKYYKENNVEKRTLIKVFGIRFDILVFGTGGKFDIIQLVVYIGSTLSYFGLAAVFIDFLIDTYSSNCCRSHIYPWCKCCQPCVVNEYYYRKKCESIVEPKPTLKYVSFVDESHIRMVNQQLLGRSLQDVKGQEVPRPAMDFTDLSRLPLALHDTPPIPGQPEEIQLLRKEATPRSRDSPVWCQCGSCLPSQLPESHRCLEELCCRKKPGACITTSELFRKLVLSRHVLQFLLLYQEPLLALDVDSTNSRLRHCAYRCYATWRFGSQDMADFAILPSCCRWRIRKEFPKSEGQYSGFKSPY
UniProt Q64663: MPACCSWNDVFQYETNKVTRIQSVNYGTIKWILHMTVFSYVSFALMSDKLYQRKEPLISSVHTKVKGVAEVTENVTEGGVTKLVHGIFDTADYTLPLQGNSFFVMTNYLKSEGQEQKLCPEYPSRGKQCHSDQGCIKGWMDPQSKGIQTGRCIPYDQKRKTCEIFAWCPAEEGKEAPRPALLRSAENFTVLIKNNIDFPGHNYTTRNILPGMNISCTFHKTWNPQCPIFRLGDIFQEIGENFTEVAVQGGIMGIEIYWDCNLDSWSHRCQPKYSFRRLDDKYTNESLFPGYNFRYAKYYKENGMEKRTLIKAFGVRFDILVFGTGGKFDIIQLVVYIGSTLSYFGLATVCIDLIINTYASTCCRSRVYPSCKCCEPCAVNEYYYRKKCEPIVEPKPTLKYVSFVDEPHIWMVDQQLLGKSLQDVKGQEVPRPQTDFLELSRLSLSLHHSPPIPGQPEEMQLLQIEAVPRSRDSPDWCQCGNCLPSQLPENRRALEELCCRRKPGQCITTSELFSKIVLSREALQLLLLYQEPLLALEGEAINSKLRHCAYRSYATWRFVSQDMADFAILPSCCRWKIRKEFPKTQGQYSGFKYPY

[3] = target: rat P2X7 (Rattus norvegicus (Rat), UniProt Q64663); experiment: P2X7 antagonism in recombinant rat P2X7 cells (column headed P2X7 Rat IC50); type: binding
Experimental: The in vitro affinity of the compounds of the invention for the rat and human P2X7 receptor was determined using a human peripheral blood mononuclear cells (PBMCs), a human whole blood assay, a Ca^2+ flux and radioligand binding assay in recombinant human P2X7 cells and recombinant rat P2X7 cells. In Tables 2, when the data cell has been left blank, it is intended to mean that the compound was not tested in that assay. The data represented in Tables 2 may represent a value from a single determination or when the experiment was run more than once, the data represents the average from between 2-12 runs.
as §1, with “The IC50 generated in the binding assay was corrected for tracer concentration and affinity of the tracer to derive at the affinity (Ki) of the test compounds. The data are presented in Table 2 under the headings: P2X7 human Ki (μM) and P2X7 rat Ki (μM).” left out

`Cc1nc(-c2cnccn2)c2c(n1)[C@H]1CCC[C@@H](C2)N1C(=O)c1cccc(Cl)c1Cl` [Example 48, (2,3-dichlorophenyl)((6S,10R)-2-methyl-4-(pyrazin-2-yl)-5,6,7,8,9,10-hexahydro-6,10-epiminocycloocta[d]pyrimidin-11-yl)methanone] showed an IC50 [1] of 0.015 µM and a Ki [2] of 25.1 nM.
`Cc1nc(-c2ccn[nH]2)c2c(n1)[C@H]1CCC[C@@H](C2)N1C(=O)c1cccc(C(F)(F)F)c1F` [Example 26, (2-fluoro-3-(trifluoromethyl)phenyl)((6S,10R)-2-methyl-4-(1H-pyrazol-5-yl)-5,6,7,8,9,10-hexahydro-6,10-epiminocycloocta[d]pyrimidin-11-yl)methanone] gave an IC50 [1] of 0.03 µM and a Ki [2] of 63.1 nM.
`Cc1nc(-c2ccc(F)cc2)c2c(n1)[C@@H]1CCC[C@H](C2)N1C(=O)c1ccnc(C(F)(F)F)c1Cl` [Example 18, (3-chloro-2-(trifluoromethyl)pyridin-4-yl)((6R,10S)-4-(4-fluorophenyl)-2-methyl-5,6,7,8,9,10-hexahydro-6,10-epiminocycloocta[d]pyrimidin-11-yl)methanone] gave an IC50 [1] of 12.1 µM.
With `Cc1nc(-c2ccc(F)cc2)c2c(n1)[C@H]1CCC[C@@H](C2)N1C(=O)c1ccc(Cl)c(F)c1Cl` [Example 54, (2,4-dichloro-3-fluorophenyl)((6S,10R)-4-(4-fluorophenyl)-2-methyl-5,6,7,8,9,10-hexahydro-6,10-epiminocycloocta[d]pyrimidin-11-yl)methanone] the IC50 [1] was 0.054 µM and the Ki [2] was 72.4 nM.
`Cc1nc(-c2ccn[nH]2)c2c(n1)C1CCCC(C2)N1C(=O)c1cccc(C(F)(F)F)c1Cl` (centres unmarked) [Example 2, (2-chloro-3-(trifluoromethyl)phenyl)(2-methyl-4-(1H-pyrazol-5-yl)-5,6,7,8,9,10-hexahydro-6,10-epiminocycloocta[d]pyrimidin-11-yl)methanone] gave a Ki [2] of 22.4 nM.
In the case of `Cc1nc(-c2ccccn2)c2c(n1)[C@H]1CCC[C@@H](C2)N1C(=O)c1ccnc(C(F)(F)F)c1Cl` [Example 61, (3-chloro-2-(trifluoromethyl)pyridin-4-yl)((6S,10R)-2-methyl-4-(pyridin-2-yl)-5,6,7,8,9,10-hexahydro-6,10-epiminocycloocta[d]pyrimidin-11-yl)methanone], the IC50 [1] is reported as 0.179 µM and the Ki [2] is reported as 93.3 nM.
Compound `Cc1nc(-c2cnccn2)c2c(n1)[C@H]1CCC[C@@H](C2)N1C(=O)c1ccnc(C(F)(F)F)c1Cl` [Example 49, (3-chloro-2-(trifluoromethyl)pyridin-4-yl)((6S,10R)-2-methyl-4-(pyrazin-2-yl)-5,6,7,8,9,10-hexahydro-6,10-epiminocycloocta[d]pyrimidin-11-yl)methanone] has an IC50 [1] of 1 µM and a Ki [2] of 200 nM.
In the case of `Cc1nc(-c2ccn[nH]2)c2c(n1)[C@@H]1CCC[C@H](C2)N1C(=O)c1cccc(C(F)(F)F)c1F` [Example 8, (2-fluoro-3-(trifluoromethyl)phenyl)((6R,10S)-2-methyl-4-(1H-pyrazol-5-yl)-5,6,7,8,9,10-hexahydro-6,10-epiminocycloocta[d]pyrimidin-11-yl)methanone], the IC50 [1] is reported as 1.56 µM.
Compound `Cc1nc(-c2ccn[nH]2)c2c(n1)[C@@H]1CCC[C@H](C2)N1C(=O)c1cccc(C(F)(F)F)c1Cl` [Example 3, (2-chloro-3-(trifluoromethyl)phenyl)((6R,10S)-2-methyl-4-(1H-pyrazol-5-yl)-5,6,7,8,9,10-hexahydro-6,10-epiminocycloocta[d]pyrimidin-11-yl)methanone] has an IC50 [1] of 1.11 µM.
For `Cc1nc(-c2ncccn2)c2c(n1)[C@H]1CCC[C@@H](C2)N1C(=O)c1cccc(C(F)(F)F)c1C` [Example 43, (2-methyl-3-(trifluoromethyl)phenyl)((6S,10R)-2-methyl-4-(pyrimidin-2-yl)-5,6,7,8,9,10-hexahydro-6,10-epiminocycloocta[d]pyrimidin-11-yl)methanone], the IC50 [1] was 0.098 µM and the Ki [2] was 126 nM.
Work on `Cc1nc(-c2ccc(F)cc2)c2c(n1)[C@H]1CCC[C@@H](C2)N1C(=O)c1ccnc(C(F)(F)F)c1Cl` [Example 52, (3-chloro-2-(trifluoromethyl)pyridin-4-yl)((6S,10R)-4-(4-fluorophenyl)-2-methyl-5,6,7,8,9,10-hexahydro-6,10-epiminocycloocta[d]pyrimidin-11-yl)methanone] yielded an IC50 [1] of 0.433 µM and a Ki [2] of 60.3 nM.
`Cc1nc(-c2ccn[nH]2)c2c(n1)[C@H]1CCC[C@@H](C2)N1C(=O)c1ccc(Cl)c(F)c1Cl` [Example 23, (2,4-dichloro-3-fluorophenyl)((6S,10R)-2-methyl-4-(1H-pyrazol-5-yl)-5,6,7,8,9,10-hexahydro-6,10-epiminocycloocta[d]pyrimidin-11-yl)methanone] was tested, and the IC50 [3] was 484 nM.
`Cc1nc(-c2cnn(C)c2)c2c(n1)[C@H]1CCC[C@@H](C2)N1C(=O)c1cccc(C(F)(F)F)c1Cl` [Example 30, (2-chloro-3-(trifluoromethyl)phenyl)((6S,10R)-2-methyl-4-(1-methyl-1H-pyrazol-4-yl)-5,6,7,8,9,10-hexahydro-6,10-epiminocycloocta[d]pyrimidin-11-yl)methanone] showed an IC50 [1] of 0.485 µM and a Ki [2] of 251 nM.
`Cc1nc(-c2ccn[nH]2)c2c(n1)[C@H]1CCC[C@@H](C2)N1C(=O)c1cccc(C(F)(F)F)c1Cl` [Example 19, (2-chloro-3-(trifluoromethyl)phenyl)((6S,10R)-2-methyl-4-(1H-pyrazol-5-yl)-5,6,7,8,9,10-hexahydro-6,10-epiminocycloocta[d]pyrimidin-11-yl)methanone] gave an IC50 [1] of 0.055 µM and a Ki [2] of 33.1 nM.

— US10150766B2, “P2X7 modulators” (Jansssen Pharmaceutica NV, priority 2014, dated 2018)
